# B1: Zinc finger protein SNAI1 (Homo sapiens), O95863 (parent)
# chain: MPRSFLVRKPSDPNRKPNYSELQDSNPEFTFQQPYDQAHLLAAIPPPEILNPTASLPMLIWDSVLAPQAQPIAWASLRLQESPRVAELTSLSDEDSGKGSQPPSPPSPAPSSFSSTSVSSLEAEAYAAFPGLGQVPKQLAQLSEAKDLQARKAFNCKYCNKEYLSLGALKMHIRSHTLPCVCGTCGKAFSRPWLLQGHVRTHTGEKPFSCPHCSRAFADRSNLRAHLQTHSDVKKYQCQACARTFSRMSLLHKHQESGCSGCPR
# Variants of: B1
# Conditions: with kdm1a_human KDM1A
row,Variant,effect of a mutation on the interaction
1,MARSFLVRKPSDPNRKPNYSELQDSNPEFTFQQPYDQAHLLAAIPPPEILNPTASLPMLIWDSVLAPQAQPIAWASLRLQESPRVAELTSLSDEDSGKGSQPPSPPSPAPSSFSSTSVSSLEAEAYAAFPGLGQVPKQLAQLSEAKDLQARKAFNCKYCNKEYLSLGALKMHIRSHTLPCVCGTCGKAFSRPWLLQGHVRTHTGEKPFSCPHCSRAFADRSNLRAHLQTHSDVKKYQCQACARTFSRMSLLHKHQESGCSGCPR [P2A],disrupting interaction

# Variants of: B1
# Conditions: with kdm1a_human KDM1A
# Remark: another data set of the same source
row,Variant,effect of a mutation on the interaction
1,MPASFLVRKPSDPNRKPNYSELQDSNPEFTFQQPYDQAHLLAAIPPPEILNPTASLPMLIWDSVLAPQAQPIAWASLRLQESPRVAELTSLSDEDSGKGSQPPSPPSPAPSSFSSTSVSSLEAEAYAAFPGLGQVPKQLAQLSEAKDLQARKAFNCKYCNKEYLSLGALKMHIRSHTLPCVCGTCGKAFSRPWLLQGHVRTHTGEKPFSCPHCSRAFADRSNLRAHLQTHSDVKKYQCQACARTFSRMSLLHKHQESGCSGCPR [R3A],disrupting interaction

# Variants of: B1
# Conditions: with kdm1a_human KDM1A
# Remark: another data set of the same source
row,Variant,effect of a mutation on the interaction
1,MPRAFLVRKPSDPNRKPNYSELQDSNPEFTFQQPYDQAHLLAAIPPPEILNPTASLPMLIWDSVLAPQAQPIAWASLRLQESPRVAELTSLSDEDSGKGSQPPSPPSPAPSSFSSTSVSSLEAEAYAAFPGLGQVPKQLAQLSEAKDLQARKAFNCKYCNKEYLSLGALKMHIRSHTLPCVCGTCGKAFSRPWLLQGHVRTHTGEKPFSCPHCSRAFADRSNLRAHLQTHSDVKKYQCQACARTFSRMSLLHKHQESGCSGCPR [S4A],disrupting interaction

# Variants of: B1
# Conditions: with kdm1a_human KDM1A
# Remark: another data set of the same source
row,Variant,effect of a mutation on the interaction
1,MPRSALVRKPSDPNRKPNYSELQDSNPEFTFQQPYDQAHLLAAIPPPEILNPTASLPMLIWDSVLAPQAQPIAWASLRLQESPRVAELTSLSDEDSGKGSQPPSPPSPAPSSFSSTSVSSLEAEAYAAFPGLGQVPKQLAQLSEAKDLQARKAFNCKYCNKEYLSLGALKMHIRSHTLPCVCGTCGKAFSRPWLLQGHVRTHTGEKPFSCPHCSRAFADRSNLRAHLQTHSDVKKYQCQACARTFSRMSLLHKHQESGCSGCPR [F5A],disrupting interaction

# Variants of: B1
# Conditions: with kdm1a_human KDM1A
# Remark: another data set of the same source
row,Variant,effect of a mutation on the interaction
1,MPRSFLVAKPSDPNRKPNYSELQDSNPEFTFQQPYDQAHLLAAIPPPEILNPTASLPMLIWDSVLAPQAQPIAWASLRLQESPRVAELTSLSDEDSGKGSQPPSPPSPAPSSFSSTSVSSLEAEAYAAFPGLGQVPKQLAQLSEAKDLQARKAFNCKYCNKEYLSLGALKMHIRSHTLPCVCGTCGKAFSRPWLLQGHVRTHTGEKPFSCPHCSRAFADRSNLRAHLQTHSDVKKYQCQACARTFSRMSLLHKHQESGCSGCPR [R8A],decreasing interaction

# Variants of: B1
# Conditions: with kdm1a_human KDM1A
# Remark: another data set of the same source
row,Variant,effect of a mutation on the interaction
1,MPRSFLVAKPSDPNRKPNYSELQDSNPEFTFQQPYDQAHLLAAIPPPEILNPTASLPMLIWDSVLAPQAQPIAWASLRLQESPRVAELTSLSDEDSGKGSQPPSPPSPAPSSFSSTSVSSLEAEAYAAFPGLGQVPKQLAQLSEAKDLQARKAFNCKYCNKEYLSLGALKMHIRSHTLPCVCGTCGKAFSRPWLLQGHVRTHTGEKPFSCPHCSRAFADRSNLRAHLQTHSDVKKYQCQACARTFSRMSLLHKHQESGCSGCPR [R8A],disrupting interaction

# Variants of: B1
# Conditions: with kdm1a_human KDM1A
# Remark: another data set of the same source
row,Variant,effect of a mutation on the interaction
1,MPRSFLVRAPSDPNRKPNYSELQDSNPEFTFQQPYDQAHLLAAIPPPEILNPTASLPMLIWDSVLAPQAQPIAWASLRLQESPRVAELTSLSDEDSGKGSQPPSPPSPAPSSFSSTSVSSLEAEAYAAFPGLGQVPKQLAQLSEAKDLQARKAFNCKYCNKEYLSLGALKMHIRSHTLPCVCGTCGKAFSRPWLLQGHVRTHTGEKPFSCPHCSRAFADRSNLRAHLQTHSDVKKYQCQACARTFSRMSLLHKHQESGCSGCPR [K9A],disrupting interaction

# Reference: IntAct's records for PubMed 20389281
